US8852559B2 (Colgate-Palmolive Company, priority 2009, dated 2014)

Test system: A. viscosus
Experiment: Inhibition of growth of A. viscosus
Details: dentifrice at increased pH

Cc1ccc([B-]2(c3ccc(C)c(Cl)c3)OC(=O)c3ncccc3[OH+]2)cc1Cl [Compound 1]
antibacterial effect as measured by growth inhibition of A. viscosus: comparable to that of the pH 7 paste as well as commercial high quality toothpaste
